Laboratory results published in publication PMC2774619 (Current Chemical Genomics, 2008).

Chains of the proteins cited; added tags and fusions are not shown. Lines headed by an entry give the natural chain unless they say otherwise; changes in a name come on top.
UniProt P12657: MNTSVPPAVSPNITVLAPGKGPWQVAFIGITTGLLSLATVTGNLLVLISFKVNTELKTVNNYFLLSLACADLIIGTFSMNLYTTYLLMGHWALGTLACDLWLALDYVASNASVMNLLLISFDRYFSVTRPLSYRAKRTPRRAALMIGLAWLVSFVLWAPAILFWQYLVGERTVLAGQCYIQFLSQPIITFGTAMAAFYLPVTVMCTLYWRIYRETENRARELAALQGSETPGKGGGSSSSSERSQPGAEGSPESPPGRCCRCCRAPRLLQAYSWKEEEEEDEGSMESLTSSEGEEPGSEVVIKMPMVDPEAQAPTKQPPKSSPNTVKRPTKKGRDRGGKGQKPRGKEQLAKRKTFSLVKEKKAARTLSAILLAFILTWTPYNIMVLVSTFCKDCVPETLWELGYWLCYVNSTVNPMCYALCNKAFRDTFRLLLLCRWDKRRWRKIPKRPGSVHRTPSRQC
UniProt P08482: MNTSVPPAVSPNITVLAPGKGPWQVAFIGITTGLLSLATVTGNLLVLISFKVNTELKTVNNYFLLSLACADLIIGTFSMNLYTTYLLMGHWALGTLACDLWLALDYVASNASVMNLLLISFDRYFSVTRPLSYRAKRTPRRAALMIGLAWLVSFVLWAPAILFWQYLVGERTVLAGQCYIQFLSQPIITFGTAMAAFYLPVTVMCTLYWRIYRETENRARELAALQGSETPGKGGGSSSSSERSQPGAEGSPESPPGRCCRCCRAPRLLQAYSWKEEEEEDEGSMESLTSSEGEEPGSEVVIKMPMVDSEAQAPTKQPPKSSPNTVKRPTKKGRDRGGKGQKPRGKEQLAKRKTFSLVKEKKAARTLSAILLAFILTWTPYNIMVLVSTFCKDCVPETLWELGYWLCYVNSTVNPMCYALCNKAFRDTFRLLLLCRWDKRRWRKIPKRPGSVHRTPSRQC

Legend:
[1] = target: murine M1 muscarinic acetylcholine receptor (Mus musculus, UniProt P12657); experiment: Intracellular calcium assay in CHO-M1 cells (1536-well, FDSS-7000); details: read-out: IC50, Calcium Assay, LOPAC qHTS, 15 concentrations, antagonist mode with EC80 carbachol
[2] = target: murine M1 muscarinic acetylcholine receptor (Rattus norvegicus, UniProt P08482); experiment: HTRF IP-One assay in CHO-M1 cells (1536-well); details: read-out: IC50, IP-One Assay, LOPAC qHTS, 15 concentrations, antagonist mode with EC80 carbachol

4-DAMP mustard hydrochloride
pIC50 [1]: 7.00

N,N,N-trimethyl-1-(4-trans-stilbenoxy)-2-propylammonium
pIC50 [2]: 5.10
pIC50 [1]: 5.40

pIC50: −log10 of the molar value.
